High-throughput results (PubChem BioAssay)
Only some compounds are listed: those with a hit (about 0.46% of all), similar ones and a draw of the others.
GIV Gai3 FP = blocks GIV peptide binding to rat Galpha-i3. P08753. Galpha-i3/FITC-GIV peptide fluorescence polarization, 90 min; hits give low values; scaled: aluminum fluoride 0%, vehicle 100%. percent of control (FP), % (concentration not given with the values). actives 0.42% (n = 210,000). AID 1224905;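 active = replicate mean at 85% of control or lower, very high polarization wells dropped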;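 also: wells of about 15 µL received 100 nL stock; the first replicate is given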
HCMV NEC inh = cytomegalovirus nuclear egress complex inhibition; hit rate 0.15% among 190,000; inhibition, % (no concentration beside the values); HTRF UL50-UL53 interaction, normalized percent inhibition; AID 1918969; in the data active means inhibition above about 27%, passing the limit was not always enough
* hit, by the source's call; . = no result.

1: CC1(C)CC(=O)C2=C(C1)NC1=C(C(=O)CC(C)(C)C1)C2c1ccc([N+](=O)[O-])cc1
2: COC(=O)C1Cc2ccccc2CN1C(=O)CSc1nnc(-c2cc3c(s2)CCC(C)C3)o1 (configuration not stated)
3: CCOC(=O)c1c(/N=C/c2c(O)n(C)c3ccccc23)sc2c1CCC2
4: CCOC(=O)c1c(-c2cccs2)csc1/N=C/c1c(O)n(C)c2ccccc12
5: CCOC(=O)c1c(/N=C/c2c(O)n(C)c3ccccc23)sc(C)c1C
6: CCOC(=O)c1c(-c2cccs2)csc1NC=O

| Compound | 1 | 2 | 3 | 4 | 5 | 6 |
| --- | --- | --- | --- | --- | --- | --- |
| GIV Gai3 FP | 113.1 | . | 110.7 | 44.5* | 52.3* | 107.0 |
| HCMV NEC inh | . | -24.5 | . | . | . | . |

7: O=c1ccc(N2CCCN(S(=O)(=O)c3cc(F)ccc3F)CC2)nn1-c1ccc(F)cc1
8: CN1CCCc2cc(/C=C3\CC/C(=C/c4ccc5c(c4)N(C)CCC5)C3=O)ccc21
9: CN1CCCc2cc(/C=C3\CCC(C4CCCC4)C3=O)ccc21 (configuration not stated)
10: Cc1cc(C(=O)C(C)OC(=O)CN2CCSC2=O)c(C)n1-c1ccc(Cl)cc1 (configuration not stated)
11: CCOc1ccc(S(=O)(=O)Nc2cc(Cl)c(O)c3ccccc23)cc1
12: CCCOC(=O)c1c(C)oc2c1cc(NS(=O)(=O)c1ccc(OCC)cc1)c1ccccc12

| Compound | 7 | 8 | 9 | 10 | 11 | 12 |
| --- | --- | --- | --- | --- | --- | --- |
| GIV Gai3 FP | 104.5 | -74.8* | 157.1 | . | . | 108.2 |
| HCMV NEC inh | -49.8 | . | . | -19.9 | 59.1* | -43.1 |

13: Cc1ccc(Cc2nc(CCNS(=O)(=O)c3ccc(C)c(C)c3)n[nH]2)cc1
14: c1ccc2sc(CCc3nc4ccccc4s3)nc2c1
15: N/C(Cc1nc2ccccc2s1)=N\O
16: N#Cc1cc2ccc(O)cc2oc1=N
17: O=c1oc2cc(O)ccc2cc1-c1cc(F)cc(F)c1
18: O=S(=O)(NC1CCCCCC1)c1ccc(-c2nnc(C3CC3)o2)o1

| Compound | 13 | 14 | 15 | 16 | 17 | 18 |
| --- | --- | --- | --- | --- | --- | --- |
| GIV Gai3 FP | 104.4 | . | 126.8 | -3.8* | 115.2 | 102.2 |
| HCMV NEC inh | . | -9.4 | 51.8* | -28.0 | -35.6 | . |

19: CCOc1cc(C=C2C(=O)N(C)C(=O)N(C)C2=O)ccc1OCCOc1ccc(C)cc1
20: CCOc1cc(C=C2C(=O)N(C)C(=O)N(C)C2=O)ccc1OCCOc1ccccc1
21: Cc1nn(C)c2nc(OC(C)C(=O)Nc3ccc4c(c3)OCO4)cc(C(F)(F)F)c12 (configuration not stated)
22: Cc1nc2c3cc(F)ccc3n(CCN3CCOCC3)c2s1
23: CCn1c2ccc(C)cc2c2nc(C)sc21
24: COc1cccc(-n2c3c(c(SCc4ccc(F)cc4)nc2=O)CCC3)c1

| Compound | 19 | 20 | 21 | 22 | 23 | 24 |
| --- | --- | --- | --- | --- | --- | --- |
| GIV Gai3 FP | 106.2 | 108.0 | 111.7 | 101.8 | 92.2 | 98.3 |
| HCMV NEC inh | 61.4* | 16.9 | -7.1 | 28.0 | 53.6* | -14.4 |

25: O=C(CSc1nc2c(sc3ncccc32)c(=O)n1Cc1ccc(F)cc1)Nc1ccc(F)c(F)c1
26: CCOC(=O)CSc1nc2c(sc3ccccc32)c(=O)n1Cc1ccc(C)cc1
27: CC(C)CSc1nc2c(sc3ncccc32)c(=O)n1Cc1ccccc1
28: O=C(Cn1cnc2c(sc3ncccc32)c1=O)Nc1ccc(F)c(F)c1
29: COc1ccc(Cn2c(SCC(=O)Nc3cccc(Cl)c3)nc3ncccc3c2=O)cc1
30: O=C(CSc1nc2c(sc3ncccc32)c(=O)n1Cc1ccccc1)Nc1ccc(F)c(F)c1

| Compound | 25 | 26 | 27 | 28 | 29 | 30 |
| --- | --- | --- | --- | --- | --- | --- |
| GIV Gai3 FP | 100.5 | 104.6 | 103.0 | 103.9 | 105.0 | 102.1 |
| HCMV NEC inh | 63.8* | . | 62.1* | . | 2.0 | 67.7* |

31: O=C(Nc1nc(-c2ccc(I)cc2)cs1)c1sc2ccccc2c1Cl
32: COc1cc(OC)cc(-c2noc(CSc3ccc(-c4ccc5c(c4)OCO5)nn3)n2)c1
33: O=C1Cc2ccccc2CC(=O)N1
34: O=C(Nc1ccccc1F)c1cnn(-c2ccc(Br)cc2)c1
35: Cc1cccc(N2CCN(S(=O)(=O)c3cccc4nsnc34)CC2)c1C
36: COC(=O)C(C(=O)OC)c1ccc(C#N)c(C#N)c1

| Compound | 31 | 32 | 33 | 34 | 35 | 36 |
| --- | --- | --- | --- | --- | --- | --- |
| GIV Gai3 FP | 102.2 | 104.8 | 100.6 | 104.5 | 104.5 | . |
| HCMV NEC inh | -20.2 | -13.5 | -12.9 | -31.1 | . | -0.7 |

37: O=C(COC(=O)c1ccc(CS(=O)(=O)c2ccccc2)o1)c1ccc[nH]1
38: CC1CCCCN1Cc1c(O)ccc2cc(-c3nc4ccccc4s3)c(=O)oc12 (configuration not stated)
39: CCC1CCCCN1Cc1c(O)ccc2cc(-c3nc(C)cs3)c(=O)oc12 (configuration not stated)
40: Cn1c(=O)n(CC(=O)N2CCCC2)c(=O)c2cc(S(=O)(=O)N3CCCCC3)ccc21
41: C1CN(c2nc(N3CCOCC3)nc(N3CCOCC3)n2)CCN1
42: COc1ccccc1NC(=O)Nc1ccnn1Cc1ccccc1

| Compound | 37 | 38 | 39 | 40 | 41 | 42 |
| --- | --- | --- | --- | --- | --- | --- |
| GIV Gai3 FP | . | -31.8* | . | 100.5 | 99.0 | . |
| HCMV NEC inh | 2.6 | -60.9 | -56.2 | . | -28.9 | 85.3* |

43: COc1ccccc1NC(=O)Nc1ccnn1C1CCCCC1
44: CCCOc1ccc(C2CC(=O)Nc3c2c(C)nn3-c2ccc3nnc(C)n3n2)cc1OCC (configuration not stated)
45: CCCCOc1ccc(C2CC(=O)Nc3c2c(C)nn3-c2ccc3nnc(C)n3n2)cc1OCC (configuration not stated)
46: C=CCN(CC=C)CC(O)CN(c1ccc(C)cc1)S(=O)(=O)c1ccc2ccccc2c1 (configuration not stated)
47: COc1cccc2c1Oc1ncccc1N(C(=O)CCC(=O)NCCc1ccc(Cl)cc1)C2
48: Cc1ccccc1Nc1nn2c(=O)c3ccc(C(=O)N4CCc5ccccc5C4)cc3nc2s1

| Compound | 43 | 44 | 45 | 46 | 47 | 48 |
| --- | --- | --- | --- | --- | --- | --- |
| GIV Gai3 FP | . | 104.6 | 75.2* | 121.1 | 108.9 | 103.1 |
| HCMV NEC inh | -6.9 | . | . | . | 3.3 | -27.9 |

Nothing new here: entries from further up.
42: COc1ccccc1NC(=O)Nc1ccnn1Cc1ccccc1
43: COc1ccccc1NC(=O)Nc1ccnn1C1CCCCC1
44: CCCOc1ccc(C2CC(=O)Nc3c2c(C)nn3-c2ccc3nnc(C)n3n2)cc1OCC (configuration not stated)
45: CCCCOc1ccc(C2CC(=O)Nc3c2c(C)nn3-c2ccc3nnc(C)n3n2)cc1OCC (configuration not stated)

| Compound | 42 | 43 | 44 | 45 |
| --- | --- | --- | --- | --- |
| GIV Gai3 FP | . | . | 104.6 | 75.2* |
| HCMV NEC inh | 85.3* | -6.9 | . | . |

Next section
49: O=C(c1ccc(Nc2nn3c(=O)c4ccccc4nc3s2)cc1)N1CCc2ccccc2C1
50: Cc1nc2cccnc2n1-c1cc(C(=O)NC(C)C)ccc1Cl
51: Cc1ccc2nc(COc3ccc(NC(=O)Nc4ccc(Cl)cc4)cc3)cc(=O)n2c1
52: CCOc1ccc(NC(=O)Nc2cccc(OCc3cc(=O)n4cc(Cl)ccc4n3)c2)cc1
53: O=C(NCc1ccccc1Cl)c1ccc(-c2cnc(NCc3ccccc3)nc2)cc1
54: O=C(Oc1ccccc1OC(=O)c1ccccc1)c1ccccc1

| Compound | 49 | 50 | 51 | 52 | 53 | 54 |
| --- | --- | --- | --- | --- | --- | --- |
| GIV Gai3 FP | 101.2 | 108.0 | 85.4* | 106.9 | 100.4 | 100.5 |
| HCMV NEC inh | 56.5* | -2.4 | . | . | . | . |

55: O=C(Oc1cccc2c1C(=O)C=CC2=O)c1ccccc1
56: O=C(Cn1ccn2nc(-c3ccccc3)cc2c1=O)N1CCCc2ccccc21
57: Cc1ccc(-c2noc(-c3cc(N4CCOCC4)nc4ccccc34)n2)cc1
58: COc1ccc(CNC2=NCCNC23CCOCC3)cc1
59: CC(C)(C)C(=O)[C@@H]1[C@@H](c2cccs2)C(C#N)(C#N)[C@H]2C=Cc3ccccc3N12
60: CC(C)(C)C(=O)[C@@H]1[C@@H](c2ccsc2)C(C#N)(C#N)[C@H]2C=Cc3ccccc3N12

| Compound | 55 | 56 | 57 | 58 | 59 | 60 |
| --- | --- | --- | --- | --- | --- | --- |
| GIV Gai3 FP | 104.1 | 96.6 | 97.1 | 104.1 | -45.3* | 122.9 |
| HCMV NEC inh | 65.1* | 3.3 | . | . | . | . |

61: CN1CCc2c(sc(NC(=O)c3nc4ccccc4s3)c2-c2nc3ccccc3s2)C1
62: CC(C)N1CCc2c(sc(NC(=O)C(C)(C)C)c2-c2nc3ccccc3s2)C1
63: CC(=O)Nc1sc2c(c1-c1nc3ccccc3s1)CCN(C(C)C)C2
64: CCN1CCc2c(sc(NC(=O)CSc3ccccc3)c2-c2nc3ccccc3s2)C1
65: CC(=O)N1CCc2c(sc(NC(=O)C(C)C)c2-c2nc3ccccc3s2)C1
66: COc1ccc(C(=O)Nc2sc3c(c2-c2nc4ccccc4s2)CCN(C(C)C)C3)cc1OC

| Compound | 61 | 62 | 63 | 64 | 65 | 66 |
| --- | --- | --- | --- | --- | --- | --- |
| GIV Gai3 FP | 95.5 | -26.3* | -3.2* | 169.4 | . | -3.2* |
| HCMV NEC inh | . | . | . | . | -17.0 | . |

67: COC(=O)c1ccc(C(=O)Nc2sc3c(c2-c2nc4ccccc4s2)CCN(C(C)C)C3)cc1
68: CCN1CCc2c(sc(NC(=O)c3ccc(Cl)cc3)c2-c2nc3ccccc3s2)C1
69: CN1C(=O)COc2ccc(N)cc21
70: Cc1ccc(O)c(C(=O)c2cnc(Nc3nc4ccccc4[nH]3)nc2)c1
71: Cc1ccc(/C=c2/sc3nc(=O)cnn3c2=O)cc1

| Compound | 67 | 68 | 69 | 70 | 71 |
| --- | --- | --- | --- | --- | --- |
| GIV Gai3 FP | 262.4 | -3.2* | 105.1 | . | 91.6 |
| HCMV NEC inh | . | . | -8.1 | -20.3 | 71.6* |
